We go through 20 compounds from PubChem BioAssay (Tox21).

This is a selection; strong and weak results do not stand in their true shares. Results filed as inconclusive are left out. A call without a number means that no potency is given here. Calls of active or inactive are those of the source. The call rests on the fitted dose curve; in most records, active means well fitted cell-killing curve with a large enough effect in the repeat runs; inconclusive means weak or mixed curves, or effect the other way; inactive means flat fitted curve, though single readings scatter.
Potency means the concentration at half of the fitted maximal effect.

This experiment in a line: qHTS assay to identify small molecule antagonists of the androgen receptor (AR) signaling pathway using the MDA cell line - cell viability counter screen (AID 743041; further: nearly all actives have a fitted effect of over 45% in size). The settings on record: MDA-kb2 viability, CellTiter-Fluor, 16 h, cells co-treated with R1881 androgen agonist; series mostly up to 70.3 µM. An excerpt: National Center for Advancing Translational Sciences [NCATS]
NIH Chemical Genomics Center [NCGC]
U.S. Environmental Protection Agency [EPA]
National Institutes of Environmental Health Sciences [NIEHS]
National Toxicology Program [NTP]
U.S. Food and Drug Administration [FDA]
Androgen receptor (AR), a nuclear hormone receptor, plays a critical role in AR-dependent prostate cancer and other androgen related diseases. Endocrine disrupting chemicals (EDCs) and their interactions with steroid hormone receptors like AR may cause disruption of normal endocrine function as well as interfere with metabolic homeostasis, reproduction, developmental and behavioral functions. To identify the compounds that inhibit AR signaling, MDA-kb2 AR-luc cell line (from ATCC, deposited by Wilson et al.) was used to screen the Tox21 10K compound library. MDA-kb2 AR-luc cell line is human breast carcinoma cell line that was stably transfected with a luciferase reporter gene under control of the MMTV promoter containing response elements for both androgen receptor (AR) and glucocorticoid receptor (GR). The cytotoxicity of the Tox21 compound library against the MDA-kb2 AR-luc cell line was tested in parallel by measuring the cell viability using CellTiter-Fluor assay (Promega, Madison, WI) in the same wells.
Tox21 Assay Protocol Summary:
MDA-kb2 AR-luc cells were dispensed at 3,000 cells/4 uL/well of culture medium into white wall/solid-bottom 1536-well plates using a Multidrop Combi (ThermoFisher Scientific, Waltham, MA) dispenser. After the assay plates were incubated at a 37C and 0% CO2 for 5 hr, 23 nL of compounds dissolved in DMSO, positive controls or DMSO only was transferred to the assay plate by a Pintool station (Kalypsys, San Diego, CA), followed by addition of 1 uL of agonist (R1881) in culture medium using a Bioraptr Flying Reagent Dispenser (FRD) workstation (Beckman Coulter, Indianapolis, IN, USA). The plates were incubated at a 37C and 0% CO2 for 16 h. After 15.5 h incubation, 1uL of CellTiter-Fluor reagent (Promega) was added using a Bioraptr FRD to each plate for measuring cytotoxicity. The fluorescence intensity was quantified on a ViewLux plate reader (PerkinElmer, Shelton, CT) following 30 min incubation at 37C and 0% CO2.
As to `COP(=S)(Cl)OC`, the Potency result was “inactive”.

On to `O=[As]c1ccccc1` (stereo not given), for which the Potency was active: 1720 nM.

For `CN(C(=O)Cc1ccccc1)[C@H]1CC[C@@]2(CCCO2)C[C@@H]1N1CCCC1`, the Potency entry was “inactive”.

On to `O=C(OC1CN2CCC1CC2)c1ccccc1` (stereo not given), for which the Potency result is “inactive”.

Turning to `CCOC(=O)Cl`, the Potency result was “inactive”.

For `O=P(Cl)(Oc1ccccc1)Oc1ccccc1`, the Potency result was “inactive”.

For the compound `NC(=O)Nc1ccc([As](=O)(O)O)cc1`, the Potency result was “inactive”.

In the case of `O=[p+]1oc2ccccc2c2ccccc21` (stereo not given), the Potency entry is “inactive”.

Regarding `CCCCC(CC)CO[P+](=O)OCC(CC)CCCC` (stereo not given), the Potency entry is “inactive”.

As for `CC(C)OP(=S)(OC(C)C)SCCNS(=O)(=O)c1ccccc1`, the Potency result is “inactive”.

Consider `CN(N=O)C(=N)N[N+](=O)[O-]`, for which the Potency entry is “inactive”.

Take `CN(C(=O)Cc1cccc2occc12)[C@H]1CC[C@@]2(CCCO2)C[C@@H]1N1CCCC1`: the Potency result is “inactive”.

Take `CCOP(=S)(CC)Sc1ccccc1` (stereo not given): the Potency entry is “inactive”.

Regarding `CCNC(C)Cc1ccc2c(c1)OCO2` (stereo not given), the Potency entry is “inactive”.

As for `ClP(Cl)c1ccccc1`, the Potency result was “inactive”.

Consider `O=[N+]([O-])c1ccc(S(=O)(=O)O)c([N+](=O)[O-])c1`, for which the Potency entry is “inactive”.

Consider `O=[P+](Oc1ccccc1)Oc1ccccc1`, for which the Potency entry is “inactive”.

`CCCCO[P+](=O)OCCCC`: the Potency result is “inactive”.

For `O=P(Cl)(Cl)c1ccccc1`, the Potency result is “inactive”.

Take `CC(C)CCCCCCCOP(OCCCCCCCC(C)C)Oc1ccccc1`: the Potency entry was “inactive”.
